Antibody variant affinities, Ab-95 light chain, assay 2

Binding partner: SARS-CoV-2 spike HR2 peptide, sequence PDVDLGDISGINAS.

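The library (AAYL52) carries one to three amino acid substitutions per variant, with no insertions or deletions. Affinity was read by AlphaSeq, a pooled yeast mating assay with surface-displayed partners. After mating in shaken culture at 30 °C for 16 h, diploids were selected and their barcode pairs sequenced. Scores were corrected for input abundance and mapped to Kd with protein pairs of known affinity run in the same pool. Each pool was mated in three replicate cultures.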

Parent: Ab-95, a human scFv built as VH, the linker GGGGSGGGGSGGGGS, VL. Only the CDRs of the light chain vary.
VH: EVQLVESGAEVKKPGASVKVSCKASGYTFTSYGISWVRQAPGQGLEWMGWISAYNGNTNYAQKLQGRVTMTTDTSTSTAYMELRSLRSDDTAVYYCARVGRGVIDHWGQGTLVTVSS
VL: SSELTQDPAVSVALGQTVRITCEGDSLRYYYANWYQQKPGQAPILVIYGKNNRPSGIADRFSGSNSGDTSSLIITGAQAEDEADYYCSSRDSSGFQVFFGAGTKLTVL

Positions count from residue 1 of the parent VL; P54K puts K in place of P. Values are log10 of the apparent Kd in nM; lower means stronger binding. Where no diploid with the target was found in that replicate, the entry reads "n.d.": below detection, most likely a poor binder, though not proof of it. Three control strains display no target. For library AAYL52, 28% of the pairings with them gave a signal, with a median of 3.91 and one signal in twenty below 2.90, so weak values seen in few replicates may be background. The control count says in how many pairings with the empty strains this scFv gave a signal, with their mean in brackets.

| changes | replicates, log10 nM | empty controls |
|---|---|---|
| P54K+F95H | n.d. / n.d. / n.d. | 0 of 9 |
| P54C+R90V+D91H | n.d. / 4.07 / n.d. | 3 of 9 (3.34) |
| Y30L+R53Y | n.d. / n.d. / n.d. | 2 of 9 (4.23) |
| S55N+D91G+F98L | 4.05 / 3.91 / n.d. | 3 of 9 (3.89) |
| E23M+D91G+Q96P | 2.80 / 2.59 / 2.38 | 1 of 9 (4.92) |
| G49Y+Q96I | n.d. / n.d. / n.d. | 4 of 9 (4.23) |
| Y29H+A32M+F95L | 4.76 / 4.12 / n.d. | 1 of 9 (2.90) |
| Y30N+N51M | 0.89 / 0.90 / 0.40 | 6 of 9 (4.69) |
| E23I+L27Q | 2.81 / n.d. / 2.83 | 0 of 9 |
| D25F+Y29E+R53V | 3.98 / 3.93 / 3.03 | 4 of 9 (3.92) |
| Y29S+N52L+G94K | 2.30 / 2.76 / 3.13 | 3 of 9 (4.62) |
| E23H+D91F+S92H | 2.28 / 1.63 / 1.42 | 1 of 9 (5.34) |
| Y30L+R53Y+D91Q | n.d. / n.d. / n.d. | 3 of 9 (3.44) |
| Y29H+A32G | 3.53 / 3.93 / 2.32 | 0 of 9 |
| L27E+R28P+Q96S | 4.12 / n.d. / 4.11 | 2 of 9 (3.99) |
| G49I+S88I+S93T | 4.81 / n.d. / n.d. | 1 of 9 (2.81) |
| R53Y+G94W | 3.32 / 3.76 / 4.03 | 3 of 9 (3.27) |
| R28H+Y30W+S55Y | 2.67 / 2.74 / 2.91 | 6 of 9 (4.13) |
| E23C+S92E+F98Y | n.d. / n.d. / 3.81 | 2 of 9 (3.39) |
| S26Q+K50Y+D91T | n.d. / 3.90 / n.d. | 2 of 9 (3.07) |
| S26T+S55V+D91A | 2.99 / 3.76 / 3.05 | 1 of 9 (3.39) |
| E23K+Y29G+R53K | 1.08 / 1.00 / 0.48 | 5 of 9 (4.20) |
| S88V+R90N+F98S | n.d. / n.d. / n.d. | 1 of 9 (4.23) |
| Y31D+P54G+S89C | 0.70 / 0.64 / 0.13 | 3 of 9 (4.01) |
| R53S+D91H+S93D | 3.65 / n.d. / 3.00 | 2 of 9 (4.09) |
| N33P+G49C+S93I | 5.10 / n.d. / n.d. | 2 of 9 (4.52) |
| S26D+N51K+S93A | 3.02 / 3.40 / n.d. | 3 of 9 (3.49) |
| G24P+N33Y+Q96P | 3.35 / 4.55 / 3.69 | 6 of 9 (3.63) |
| F95S+F98C | n.d. / n.d. / 4.03 | 2 of 9 (3.99) |
| E23F+L27H+S55V | 2.66 / 2.58 / 2.86 | 2 of 9 (3.72) |
| N52W+R53Q+S89E | 5.23 / n.d. / n.d. | 3 of 9 (3.71) |
| G24L+D25A+Y31Q | 3.83 / n.d. / n.d. | 2 of 9 (4.58) |
| N52C+S55M+S89M | 2.45 / n.d. / n.d. | 1 of 9 (4.00) |
| G24A+A32R+S88D | 4.22 / n.d. / n.d. | 4 of 9 (3.91) |
| N33L+S55T+Q96P | 3.81 / n.d. / n.d. | 3 of 9 (4.27) |
| Y29Q+A32F+S55P | 3.50 / 3.75 / n.d. | 3 of 9 (3.55) |
| E23Q+S26Y+K50V | 4.28 / 2.94 / 2.56 | 5 of 9 (3.56) |
| G24E+R90Q | n.d. / n.d. / n.d. | 2 of 9 (3.93) |

Repeated from above, the 5 best binders with a signal in all replicates:

{"changes": "Y31D+P54G+S89C", "replicates, log10 nM": "0.70 / 0.64 / 0.13", "empty controls": "3 of 9 (4.01)"}
{"changes": "Y30N+N51M", "replicates, log10 nM": "0.89 / 0.90 / 0.40", "empty controls": "6 of 9 (4.69)"}
{"changes": "E23K+Y29G+R53K", "replicates, log10 nM": "1.08 / 1.00 / 0.48", "empty controls": "5 of 9 (4.20)"}
{"changes": "E23H+D91F+S92H", "replicates, log10 nM": "2.28 / 1.63 / 1.42", "empty controls": "1 of 9 (5.34)"}
{"changes": "E23M+D91G+Q96P", "replicates, log10 nM": "2.80 / 2.59 / 2.38", "empty controls": "1 of 9 (4.92)"}

Data: MIT Lincoln Laboratory AlphaSeq set, Engelhart et al. 2022, doi:10.1038/s41597-022-01779-4, as distributed in FLAb.